The text below walks through data of patent US9549746B2, “Delivery device and method” (THE QUEEN'S UNIVERSITY OF BELFAST, priority 2007, dated 2017).

The conditions of this data set: PMVMA microneedles attached to aqueous fluid reservoirs containing 10,000 μg BSA cm^-3; FIG. 13.

Consider bovine serum albumin [BSA], for which the “delivery of BSA across Silescol membrane” value was “delivery of significant levels”.
